These are literature values, as cited in patent publication US20070101461A1, “Method for Improving Phytoremediation Treatment of a Contaminated Medium” (priority 2001, published 2007).

This data set relates to plant. Particulars: cited from earlier work.

Take Amino-dinitrotoluene: the “Fate in plant (toxic, build up, or volatile)” value is “Rather persistent,”.
